Measurements reported in paper PMC5409837 (Science translational medicine, 2017).

Test system: VEGFR2 and PDGFRα phosphorylation
Conditions: hiPSC-CMs

## CNC(=O)c1cc(Oc2ccc(NC(=O)Nc3ccc(Cl)c(C(F)(F)F)c3)cc2)ccn1 [sorafenib]
  VEGFR2/PDGFR inhibition at nanomolar concentrations: complete VEGFR2/PDGFR inhibition
